## Experimental melting point values from OPERA 2.9

Values as listed in the OPERA 2.9 repository of K. Mansouri.

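The numbers are reported measurements, compiled and curated for the OPERA QSAR suite. A listed value is a point estimate from one report or more. How each value was measured is not recorded, so precision varies. The measured form (salt, isomer or mixture) is not always the one drawn. Some entries may be limits or estimates that an upstream database listed as plain numbers.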

The melting point is given in degrees Celsius.
The databases behind each value are named after "via".

COc1cc(C#N)cc(Cl)c1O [3-chloro-4-hydroxy-5-methoxybenzonitrile] has mp 142 °C (via OCHEM). Listed for O=C(O)C#Cc1ccccc1Cl [3-(2-Chlorophenyl)-2-propynoic acid]: mp 133.2 °C (via PubChem). The entry for O=C(CCl)c1c(-c2ccc(F)cc2)[nH]c2ccccc12 [2-Chloro-1-[2-(4-fluorophenyl)-1H-indol-3-yl]ethan-1-one] lists mp 159 °C (via OCHEM). The entry for C[C@@H](O)[C@@H](O)[C@@H](O)CC=O [D-Digitoxose] lists mp 112 °C (via OCHEM). NC(=O)c1cc(N2CCCCC2)ccc1N [2-amino-5-piperidin-1-ylbenzamide] has mp 169 °C (via OCHEM).

CC(C)CCNC(N)=O [Urea, isopentyl-] has mp 44 °C (via OCHEM). CCN1CCc2nc(N)sc2C1 [5-Ethyl-4,5,6,7-tetrahydro-thiazolo[5,4-c]pyridin-2-ylamine] has mp 75.5 °C (via OCHEM). Cc1cc(C)n2nc(N)nc2n1 [5,7-dimethyl[1,2,4]triazolo[1,5-a]pyrimidin-2-amine] is reported with mp 370 °C (via OCHEM). The entry for O=Cc1cccc(C(F)(F)F)c1Cl [2-Chloro-3-(trifluoromethyl)benzaldehyde] lists mp 43.5 °C (via OCHEM). Listed for OCc1cc(F)cc(CO)c1O [4-Fluoro-2,6-bis(hydroxymethyl)phenol]: mp 120 °C (via OCHEM).

Listed for NC(=O)c1ccc(S(=O)(=O)Cl)cc1 [4-Carbamoylbenzene-1-sulfonyl chloride]: mp 189 °C (via OCHEM). Nc1ccc(S(=O)(=O)NC2CC2)cc1 [4-amino-N-cyclopropylbenzenesulfonamide] is reported with mp 146 °C (via OCHEM). Cc1cc(C)c(C(=O)CCl)c(C)c1 [2-Chloro-1-(2,4,6-trimethylphenyl)ethan-1-one] has mp 69 °C (via OCHEM). Listed for O=c1[nH]cc(S(=O)(=O)Cl)c(=O)[nH]1 [2,4-Dioxo-1,2,3,4-tetrahydropyrimidine-5-sulfonyl chloride]: mp 156 °C (via OCHEM). Fc1cccc(CBr)c1C(F)(F)F [3-Fluoro-2-(trifluoromethyl)benzyl bromide] has mp 41.5 °C (via OCHEM).

Nc1oc2ccc(F)cc2c(=O)c1C=O [2-amino-6-fluoro-4-oxo-4H-chromene-3-carbaldehyde] has mp 252 °C (via OCHEM). COC(=O)C(N)c1ccc(O)cc1 (centres undefined) [Methyl amino(4-hydroxyphenyl)acetate] is reported with mp 177.3 °C (via eChemPortal). Cc1cc2cccc3ccc4c5ccccc5cc1c4c32 [Benzo(a)pyrene, 5-methyl-] is reported with mp 216 °C (via OCHEM). For COC(=O)c1c(O)cc(=O)n2c1CCCCC2 the data give mp 223 °C (via OCHEM). Listed for Cc1cccc2nc(CCl)cc(=O)n12 [2-(chloromethyl)-6-methyl-4H-pyrido[1,2-a]pyrimidin-4-one]: mp 121 °C (via OCHEM).

Listed for O=C(O)CCc1ccc2c(c1)OCCO2 [3-(2,3-dihydro-1,4-benzodioxin-6-yl)propanoic acid]: mp 65 °C (via OCHEM). C[C@]12C=CC[C@@]1(C)[C@]1(C)C=C[C@@]2(C)C1 [endo-Dicyclopentadiene] is reported with mp 32 °C (via OCHEM). The entry for O=C(O)CSCC(=O)N1CCCCC1 [[(2-oxo-2-piperidin-1-ylethyl)thio]acetic acid] lists mp 92 °C (via OCHEM). For CCOC(=O)c1ccc(-n2c(C)cc(C=O)c2C)cc1 [Ethyl 4-(3-formyl-2,5-dimethyl-1H-pyrrol-1-yl)benzoate] the data give mp 114 °C (via OCHEM). O=C(O)C1(c2ccc(F)cc2)CCC1 [1-(4-Fluorophenyl)cyclobutane-1-carboxylic acid] is reported with mp 68 °C (via OCHEM).

CN(C)C(=O)Cc1ccc(N)cc1 [2-(4-Aminophenyl)-N,N-dimethylacetamide] has mp 98 °C (via OCHEM). For O=C1c2ccccc2S(=O)(=O)N1CCl the data give mp 146 °C (via OCHEM). The entry for O=C(O)c1ccc(S(=O)(=O)Nc2ccccc2)cc1 [4-(Phenylsulfamoyl)benzoic acid] lists mp 226 °C (via OCHEM). O=C1CC(c2ccccc2)=NN1c1ccccc1 [3H-Pyrazol-3-one, 2,4-dihydro-2,5-diphenyl-] is reported with mp 139 °C (via OCHEM). The entry for O=C1Nc2c(ccc(Cl)c2Cl)C1=O [6,7-Dichloro-1H-indole-2,3-dione] lists mp 204 °C (via OCHEM).

Listed for CN(C)S(=O)(=O)c1cccc(N)c1 [3-amino-n,n-dimethylbenzenesulfonamide]: mp 126 °C (via OCHEM). The entry for CC(C)(Oc1ccc(F)cc1)C(=O)O [Fluorofibric acid] lists mp 69 °C (via OCHEM). Listed for C#C[C@]1(O)CC[C@H]2[C@@H]3CC=C4CC5(CC[C@]4(C)[C@H]3CC[C@@]21C)OCCO5: mp 257 °C (via eChemPortal). COC(=O)C(=O)CC(=O)c1cccnc1 [methyl 2,4-dioxo-4-pyridin-3-ylbutanoate] is reported with mp 114 °C (via OCHEM). O=C(O)c1cc2c([nH]c1=O)CCC2 is reported with mp 274 °C (via OCHEM).

The entry for CC(=O)OCC(=O)[C@@]1(O)[C@H](C)C[C@H]2[C@@H]3C[C@H](F)C4=CC(=O)C=C[C@]4(C)[C@@]34O[C@H]4C[C@@]21C lists mp 211.3 °C (via eChemPortal). Cc1ccc(C(C)C)c(OC(C)C(=O)O)c1 (centres undefined) [2-(2-isopropyl-5-methylphenoxy)propanoic acid] is reported with mp 62 °C (via OCHEM). N=C(N)NS(=O)(=O)c1ccccc1 [N-Carbamimidoylbenzenesulfonamide] has mp 212 °C (via OCHEM). CCOC(=O)c1ccc2c(c1)nc(C)n2CC [Ethyl 1-ethyl-2-methyl-1H-benzimidazole-5-carboxylate] is reported with mp 71 °C (via OCHEM). O=C(O)c1ccc(Nc2ccccc2)c([N+](=O)[O-])c1 [4-anilino-3-nitrobenzoic acid] is reported with mp 251 °C (via OCHEM).

The entry for CCOC(=O)c1c(C)[nH]c(C=O)c1C lists mp 163 °C (via OCHEM). For NNc1ncccn1 [2-hydrazinopyrimidine] the data give mp 91 °C (via OCHEM). Listed for CC(C)NS(=O)(=O)c1cccc(CN)c1 [3-(Aminomethyl)-N-(propan-2-yl)benzene-1-sulfonamide]: mp 99 °C (via OCHEM). Listed for O=C(O)C1=C(Nc2ccccc2)OCC1=O [2-Anilino-4-oxo-4,5-dihydrofuran-3-carboxylic acid]: mp 145 °C (via OCHEM). Listed for CCNc1n[nH]c(=S)s1 [5-(ethylamino)-1,3,4-thiadiazole-2-thiol]: mp 142 °C (via OCHEM).

CCCOc1cc(C=O)ccc1OC [4-Methoxy-3-propoxybenzaldehyde] is reported with mp 36 °C (via OCHEM). The entry for O=C(O)c1cnn(-c2ccccc2)n1 [2-phenyl-2H-1,2,3-triazole-4-carboxylic acid] lists mp 184 °C (via OCHEM). For O=C(CCCl)Nc1ccc(F)cc1 [3-chloro-N-(4-fluorophenyl)propanamide] the data give mp 110 °C (via OCHEM). Listed for CC(=O)OCC(=O)[C@@]1(O)[C@H](C)C[C@H]2[C@@H]3C=C(C)C4=Cc5c(cnn5-c5ccccc5)C[C@]4(C)[C@H]3[C@@H](O)C[C@@]21C [Cortivazol]: mp 230 °C (via OCHEM). Listed for O=C(O)/C=C/c1ccc([N+](=O)[O-])o1 [1-(5-NO2-2-furyl)-2-(COOH)ethylene]: mp 231 °C (via OCHEM).

For c1cnc2c(c1)NCCC2 [1,2,3,4-tetrahydro-1,5-naphthyridine] the data give mp 104 °C (via OCHEM). The entry for NNc1ncnc2c1oc1ccccc12 [4-hydrazino[1]benzofuro[3,2-d]pyrimidine] lists mp 233 °C (via OCHEM). O=C(O)Cc1ccc(-n2cccc2)cc1 [Acetic acid, (p-(1-pyrrolyl)phenyl)-] is reported with mp 172 °C (via OCHEM). The entry for CCOC(=O)C1=C(COCCNC(=O)c2ccccc2C(=O)O)NC(C)=C(C(=O)OC)C1c1ccccc1Cl (centres undefined) lists mp 169 °C (via eChemPortal). N#Cc1c(N)sc2c1CCCCC2 is reported with mp 109 °C (via OCHEM).

The first 9 entries again:

COc1cc(C#N)cc(Cl)c1O [3-chloro-4-hydroxy-5-methoxybenzonitrile] has mp 142 °C (via OCHEM).
O=C(O)C#Cc1ccccc1Cl [3-(2-Chlorophenyl)-2-propynoic acid] has mp 133.2 °C (via PubChem).
O=C(CCl)c1c(-c2ccc(F)cc2)[nH]c2ccccc12 [2-Chloro-1-[2-(4-fluorophenyl)-1H-indol-3-yl]ethan-1-one] has mp 159 °C (via OCHEM).
C[C@@H](O)[C@@H](O)[C@@H](O)CC=O [D-Digitoxose] has mp 112 °C (via OCHEM).
NC(=O)c1cc(N2CCCCC2)ccc1N [2-amino-5-piperidin-1-ylbenzamide] has mp 169 °C (via OCHEM).
CC(C)CCNC(N)=O [Urea, isopentyl-] has mp 44 °C (via OCHEM).
CCN1CCc2nc(N)sc2C1 [5-Ethyl-4,5,6,7-tetrahydro-thiazolo[5,4-c]pyridin-2-ylamine] has mp 75.5 °C (via OCHEM).
Cc1cc(C)n2nc(N)nc2n1 [5,7-dimethyl[1,2,4]triazolo[1,5-a]pyrimidin-2-amine] has mp 370 °C (via OCHEM).
O=Cc1cccc(C(F)(F)F)c1Cl [2-Chloro-3-(trifluoromethyl)benzaldehyde] has mp 43.5 °C (via OCHEM).